## Measured affinities in a library of Ab-14 light chain variants

The target is the same throughout: PDVDLGDISGINAS, from the HR2 region of SARS-CoV-2 spike.

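The starting antibody came from a phage panning campaign against this peptide. Designed CDR sequences, proposed from the first random library and measured here. Group labels follow the data file (Ctrl: baseline library sampled from a position-specific scoring matrix, with some repeated check sequences; Rand: our label for a block that the file lists under HC and that is probably the random mutants of the ten best first-round binders; En: ensemble of fine-tuned language models; GP: Gaussian process model; GPLM: also part of the Gaussian process libraries; HC: hill climbing; Gen: genetic algorithm; Gibbs: Gibbs sampling; a sequence that several methods proposed may carry one label only). AlphaSeq pools MATa yeast showing the antibodies with MATalpha yeast showing the peptide. After mating in shaken culture at 30 °C for 16 h, diploids were selected and their barcode pairs sequenced. Read counts were normalised to the haploid input and turned into Kd by a linear fit to BCL2-family pairs of known affinity, for each replicate. Each pool was mated in six replicate cultures.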

Parent: Ab-14, a human scFv built as VH, the linker GGGGSGGGGSGGGGS, VL. Only the CDRs of the light chain vary.
VH: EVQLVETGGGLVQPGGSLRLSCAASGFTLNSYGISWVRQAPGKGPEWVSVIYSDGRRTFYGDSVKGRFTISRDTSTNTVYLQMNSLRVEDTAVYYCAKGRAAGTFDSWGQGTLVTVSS
VL: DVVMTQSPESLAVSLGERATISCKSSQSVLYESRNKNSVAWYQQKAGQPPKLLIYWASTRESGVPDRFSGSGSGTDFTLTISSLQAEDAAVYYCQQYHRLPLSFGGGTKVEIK

The parent's light chain CDRs are KSSQSVLYESRNKNSVA, WASTRES, QQYHRLPLS; each variant's own CDRs replace them letter for letter.
This list holds designs with at most six substitutions.
The read-out is the apparent dissociation constant on a log10 scale (nM): the lower, the stronger.
Replicates are averaged; those with no signal do not enter the mean.
Where no diploid with the target was found in any replicate, the entry reads "not detected": below detection, most likely a poor binder, though not proof of it.

| CDR-L1 | CDR-L2 | CDR-L3 | group | mean log10 Kd (nM) | seen in |
|---|---|---|---|---|---|
| KSMQSVLYESRNKNSVA | GASTREE | QQYHRLPLS | Ctrl | 0.16 | 6 of 6 |
| KSSQSVLDESRPKNSVA | QASTRES | QQYHYLPLS | Ctrl | 2.56 | 4 of 6 |
| KSSQSVLYESTDKNSVA | WASTRES | QQYHREPLS | Ctrl | not detected | 0 of 6 |
| KLSQSVEYESRDKNSVA | DASTRMS | QQYHRLPLS | GP_Gibbs | -0.32 | 6 of 6 |
| KCSQSVLYESRNKNSVA | NASTRES | QQYHRLILS | Ctrl | not detected | 0 of 6 |
| KLSQSDLYQSRNKNSVA | NASTRYS | QQYHRLPLS | GP_Gibbs | -0.03 | 6 of 6 |
| KMSQSVLFEPRNKNSVA | DASTRES | QQYHRLPLS | GP_HC | -0.79 | 6 of 6 |
| KSSISYLPEKRNKNSVA | EASTRES | QQYHRLPLS | GP_HC | -0.42 | 6 of 6 |
| KISQSVLYNSRNKNSVA | WASTRES | QQYHRKPLM | Ctrl | not detected | 0 of 6 |
| KLSQSVLYESRNKNSVA | GASTREM | QQYHRLPLS | GP_Gen | -0.25 | 6 of 6 |
| KLSQYVLYESRNKNSVA | WASTRES | IQYHRLPLS | Ctrl | 1.42 | 6 of 6 |
| KSSQSVLGEQRNKNSVA | DASTRES | QQYHELPLS | GP_HC | 0.75 | 6 of 6 |
| KLSQSKLYESRNKNNVA | DASQRES | QQYHRLPLS | GP_Gen | -0.39 | 6 of 6 |
| KSSQSFLYESRNKNSVA | GASTRES | QQYHRLTLS | En_HC | -0.10 | 6 of 6 |
| KSSQSVLYESRNLQSVA | NASTRES | QQYHRLPLS | Ctrl | 0.57 | 6 of 6 |
| KLYQSVGYESRNKNSVA | NASQRES | QQYHRLPLS | GP_Gen | -0.44 | 6 of 6 |
| KISQSVLAESRNKNSVA | WASTRES | QQYHRLPLS | Ctrl | 0.68 | 6 of 6 |
| KSSQSVQYESRNKNSVA | HASTRES | QQYQRLPLP | Ctrl | not detected | 0 of 6 |
| KSSQSVDCESRNKNSVA | DASTRES | QQYHRLPLS | GP_HC | 0.84 | 6 of 6 |
| KLSQSQLYESRNTKSVA | NASTRVS | QQYHRLPLS | GP_Gibbs | 0.12 | 6 of 6 |
| KLNQSVGYEQRNKNSVA | EASTRED | QQYHRLPLS | GP_Gibbs | 0.41 | 6 of 6 |
| KSSISDLYESRNKNSVA | EASTREE | QQYHRLPLS | GP_HC | 0.16 | 6 of 6 |
| KSSESELYESRNKNSVA | EASTRES | QQYHRLPLS | GP_Gen | 0.07 | 6 of 6 |
| HSSLSVLYESRNKNSVA | HASTRES | QQYHRLPLS | GP_HC | 1.23 | 6 of 6 |
| KSSESVLPPSRGKNSVA | WASTRES | QQYHRLPLS | Ctrl | 0.84 | 3 of 6 |
| KVSQSVLYESRTGNSVA | WASTRES | QQYHRLTLS | Ctrl | 0.63 | 6 of 6 |
| KTPQGVLYESRNKNSVA | DASVRES | QQYHRLPLS | GP_HC | -0.07 | 6 of 6 |
| KFSQRVLYESRTKNSVA | NASTRES | QQYHRLPLT | Rand | -0.01 | 6 of 6 |
| KLSWSYLYESRNKNSVA | NASTRES | QQYHRLPLS | GP_Gen | 0.09 | 6 of 6 |
| KLPQSVPYESRNKNSVA | EASTRES | QQYHRLPLS | GP_Gen | -0.28 | 6 of 6 |
| KSSQSVLGEQRNKNSVA | DSSTRES | QQYHRLPLS | GP_HC | 0.04 | 6 of 6 |
| KLQQSGLYESRNKNSVA | NASTRLS | QQYHRLPLS | GP_Gen | -0.05 | 6 of 6 |
| KQQQSVLYESRNKNNVA | HASTRED | QQYHRLPLS | GP_HC | -0.40 | 6 of 6 |
| KLSQSGLYESRNKNSVA | SASTRES | QQYHRLPLS | GP_Gen | 0.16 | 6 of 6 |
| KSEQSVLYESSNKNSVA | WASTRES | QQYHRLPLN | Ctrl | 2.70 | 6 of 6 |
| KLDQSQLYESRMKNSVA | NASTRES | QQYHRLPLS | GP_Gen | 0.28 | 6 of 6 |
| KVSQSVLYENDNKNSVA | AASTRED | QQYHRLPLS | Ctrl | 0.06 | 6 of 6 |
| KSSISGLYESRMKNSVA | EASTREV | QQYHRLPLS | GP_HC | 1.36 | 6 of 6 |
| KISQSMLYEPRNWNSVA | NASTRLS | QQYHRLPLS | GP_Gibbs | 0.21 | 6 of 6 |
| KSSQCWLDEIRNKNSVA | GASTRES | QQYHRLPLS | Rand | -0.22 | 6 of 6 |
| KSSQSVLPESRNKNSVA | WASWRES | QQYQRLPLS | Ctrl | 1.12 | 1 of 6 |
| KSYQSVLFESRPKNSVA | WASTRED | QQYHRLPLS | Ctrl | 2.43 | 2 of 6 |
| KLSQSYDYESRNKNSVA | NASTRES | QQYHRLPLS | GP_Gen | 0.41 | 6 of 6 |
| KSSQSVLYESRNKNSVA | YASARES | QQYARLPLS | Ctrl | 2.58 | 1 of 6 |
| KSSISLLYESRNKNSVA | EASTRES | QQYHRLPLS | GPLM_HC | 0.35 | 6 of 6 |
| KLSQSCLYESRNKNSVA | EASTRES | QQYHRLPLS | GP_Gen | 0.32 | 6 of 6 |
| KLPQSVLYESRNKNSVA | DASTRES | QQYHRLPLS | GP_Gen | -0.56 | 6 of 6 |
| KSSQSVLYESRNKNSVA | AASTRES | QQYHCLPLS | Ctrl | 1.56 | 1 of 6 |
| KLSQSMPYEQRNKNSVA | NASQRES | QQYHRLPLS | GP_Gibbs | 0.61 | 6 of 6 |
| KLSQQQLYESRNKNSVA | NASTRES | QQYHRLPLS | GP_Gen | -0.15 | 6 of 6 |
| KLSQSVLYESGNKNSVA | DASTRES | QQYHRLPLS | GP_Gen | 0.04 | 6 of 6 |
| KLSQSYHYESRNKNSVA | GASTRES | QQYHRLPLS | GP_HC | -0.12 | 6 of 6 |
| KLSQSDLYESRNSNNVA | NASTRES | QQYHRLPLS | GP_Gen | -0.18 | 6 of 6 |
| KSSQSVLMESRNKNSVA | DASTRLS | QQYHRLPLS | GP_HC | 0.14 | 6 of 6 |
| KSSQSWLYEDRVKNNVA | GASTRES | QQYHRLPLS | GP_HC | 1.04 | 6 of 6 |
| KIYQSVLYESRNKNSVA | AASTRES | QQYHRLPLS | Ctrl | 0.89 | 6 of 6 |
| KLEQSQNYESRNKNSVA | NASTRES | QQYHRLPLS | GP_HC | -0.11 | 6 of 6 |

10 of these entries, quoted again:

| CDR-L1 | CDR-L2 | CDR-L3 | group | mean log10 Kd (nM) | seen in |
|---|---|---|---|---|---|
| KFSQRVLYESRTKNSVA | NASTRES | QQYHRLPLT | Rand | -0.01 | 6 of 6 |
| KLEQSQNYESRNKNSVA | NASTRES | QQYHRLPLS | GP_HC | -0.11 | 6 of 6 |
| KSSQSFLYESRNKNSVA | GASTRES | QQYHRLTLS | En_HC | -0.10 | 6 of 6 |
| KSSQSVLDESRPKNSVA | QASTRES | QQYHYLPLS | Ctrl | 2.56 | 4 of 6 |
| KLQQSGLYESRNKNSVA | NASTRLS | QQYHRLPLS | GP_Gen | -0.05 | 6 of 6 |
| KLYQSVGYESRNKNSVA | NASQRES | QQYHRLPLS | GP_Gen | -0.44 | 6 of 6 |
| KLSWSYLYESRNKNSVA | NASTRES | QQYHRLPLS | GP_Gen | 0.09 | 6 of 6 |
| KSSQSVQYESRNKNSVA | HASTRES | QQYQRLPLP | Ctrl | not detected | 0 of 6 |
| HSSLSVLYESRNKNSVA | HASTRES | QQYHRLPLS | GP_HC | 1.23 | 6 of 6 |
| KLSQSGLYESRNKNSVA | SASTRES | QQYHRLPLS | GP_Gen | 0.16 | 6 of 6 |

Background: pairings of all light chain designs with three empty control strains gave a value in 4% of cases (median 2.64, 5th percentile 1.59). Values in that range, when seen in few replicates, are hard to tell from nonspecific mating.
The authors' rule: three or more of the six replicates give a measured affinity, fewer mean a poor binder.
The parent sequence was in this pool as ten entries: three were never detected, three once, and four in most replicates, with averages from 0.34 to 2.37.
The range of this assay differs from that of the first round, and the authors advise against merging the two.

Source: Li et al. 2023 (doi:10.1038/s41467-023-39022-2), MIT Lincoln Laboratory and A-Alpha Bio; data file from the FLAb repository.